Measured values as given in ChEMBL document CHEMBL3393026, “A selective small molecule NOP (ORL-1 receptor) partial agonist for the treatment of anxiety” (Bioorg Med Chem Lett, 2015).

How the values were obtained:
[1] = test system: HEK293; test: Selectivity ratio of IC50 for human Mu opioid receptor expressed in HEK293 cells to human ORL1 expressed in HEK293 cells
[2] = test system: HEK293; test: Selectivity ratio of IC50 for human kappa opioid receptor expressed in HEK293 cells to human ORL1 expressed in HEK293 cells

Structure (SMILES) | Ratio IC50 [1] | Ratio IC50 [2]
COc1ccc(CNC[C@H](O)CN2CN(c3ccccc3)C3(CCN(CCc4ccccc4-c4cccs4)CC3)C2=O)cc1 | 0.5 | –
COc1ccc(CNC[C@@H](O)CN2CN(c3ccccc3)C3(CCN(CCc4ccccc4-c4cccs4)CC3)C2=O)cc1 | 26 | –
CCCCN(Cc1ccccc1)C[C@H](O)CN1CN(c2ccc(F)cc2)C2(CCN(CC3CCCCCCC3)CC2)C1=O | 35 | 7
Cc1ccccc1CNC[C@@H](O)CN1CN(c2ccccc2)C2(CCN(CCc3ccccc3-c3cccs3)CC2)C1=O | 4 | –
Cc1ccc(CN(C[C@H](O)CN2CN(c3ccc(F)cc3)C3(CCN(CC4CCCCCCC4)CC3)C2=O)C(=O)[C@H](N)C(C)C)cc1 | 46 | –
COc1ccc(CCOC[C@H](O)CN2CN(c3ccc(F)cc3)C3(CCN(CC4CCCCCCC4)CC3)C2=O)cc1OC | 28 | –
COc1ccc(CCNC[C@@H](O)CN2CN(c3ccccc3)C3(CCN(CCc4ccccc4-c4cccs4)CC3)C2=O)cc1OC | 20.4 | –
CCCCN(Cc1ccccc1)C[C@@H](O)CN1CN(c2ccccc2)C2(CCN(CCc3ccccc3-c3cccs3)CC2)C1=O | 0.28 | –
Cc1cccc(SC[C@H](O)CN2CN(c3ccc(F)cc3)C3(CCN(CC4CCCCCCC4)CC3)C2=O)c1 | 14 | –
CCCCN(Cc1ccccc1)C[C@H](O)CN1CN(c2ccccc2)C2(CCN(CCc3ccccc3-c3cccs3)CC2)C1=O | 0.36 | –
O=C1N(C[C@@H](O)CNCc2cccs2)CN(c2ccccc2)C12CCN(CCc1ccccc1-c1cccs1)CC2 | 0.18 | –
CC(C)(C)NC[C@@H](O)CN1CN(c2ccccc2)C2(CCN(CCc3ccccc3-c3cccs3)CC2)C1=O | 1.4 | –
Cc1ccccc1CNC[C@H](O)CN1CN(c2ccccc2)C2(CCN(CCc3ccccc3-c3cccs3)CC2)C1=O | 4.9 | –
O=C1N(C[C@H](O)CNCc2cccs2)CN(c2ccccc2)C12CCN(CCc1ccccc1-c1cccs1)CC2 | 10 | –
COc1ccc(CCNC[C@H](O)CN2CN(c3ccc(F)cc3)C3(CCN(CC4CCCCCCC4)CC3)C2=O)cc1OC | 112 | 23
